{"source": "patent US20260069707A1", "about": "“COMBINATION THERAPY WITH ANTIBODY-DRUG CONJUGATES AND HYALURONIDASES” (HALOZYME, INC., priority 2024, published 2026)", "assay": "Calculation of free payload:ADC following ADC administration", "conditions": "Concentration (weight/mL) basis", "protocol": "Antibody drug conjugates with thiol-malimide conjugation undergo deconjugation following administration. To assess this deconjugation, free payload: ADC was calculated rather than reverse, because for completely stable antibody, ADC:free payload would be infinity.\nAntibody drug conjugates with thiol-malimide conjugation undergo deconjugation following administration. To assess this deconjugation, free payload: ADC was calculated for specific antibody drug conjugates including Trastuzumab, Polatuzumab, Enfortumab and Tisotumab.", "data": [{"substance": "Trastuzumab deruxtecan (Enhertu)", "values": [{"measurement": "free payload: ADC, AUC", "result": 0.00444, "unit": "%"}, {"measurement": "free payload: ADC, Cmax", "result": 0.00413, "unit": "%"}]}]}
